Results as given in US11345694B2, “Antibacterial compounds” (DISCUVA LTD., priority 2017, dated 2022).

Assays:
Experiment in all cases: MIC broth microdilution
[1] = system: K. pneumoniae H154640784 (KP7); type: cell-based, Klebsiella pneumoniae
Protocol: (§1) Minimum Inhibitory Concentrations (MICs) versus planktonic bacteria are determined by the broth microdilution procedure according to the guidelines of the Clinical and Laboratory Standards Institute (Clinical and Laboratory Standards Institute. Methods for Dilution Antimicrobial Susceptibility Tests for Bacteria That Grow Aerobically; Approved Standard-tenth Edition. CLSI document M07-A10, 2015). The broth dilution method involves a two-fold serial dilution of compounds in 96-well microtitre plates, giving a final concentration range of 0.39-200 μM and a maximum final concentration of 2% DMSO. The bacterial strains tested include Escherichia coli K12 (EC), E. coli NCTC 13441 (UPEC), Staphylococcus aureus ATCC 35556 (SA), Acinetobacter baumannii ATCC 17978 (AB), Pseudomonas aeruginosa ATCC 33359 (PA), Enterobacter cloacae DSM 30054 (Ed), Serratia marcescens SL1344 (Sm), Salmonella typhimurium XNAA5 (St), Klebsiella pneumoniae ATCC 10031 (KP2), K. pneumoniae NCTC 13438 (KP1), K. pneumoniae ATCC 700603 (KP3), Klebsiella pneumoniae ATCC 51504 (KP4), K. pneumoniae H154680676 (KP5), K. pneumoniae H154020667 (KP6), K. pneumoniae H154640784 (KP7), K. pneumoniae H154600588 (KP8), K. pneumoniae H154300688 (KP9), K. pneumoniae H151440671 (KP10). Strains are grown in cation-adjusted Müller-Hinton broth or on Luria Bertoni agar at 37° C. in an ambient atmosphere. The MIC is determined as the lowest concentration of compound that inhibits growth following a 20-24 hour incubation period.

[2] = system: K. pneumoniae NCTC 13438 (KP1); type: cell-based, Klebsiella pneumoniae
Protocol: as §1

[3] = system: K. pneumoniae H154680676 (KP5); type: cell-based, Klebsiella pneumoniae
Protocol: as §1

[4] = system: K. pneumoniae H154300688 (KP9); type: cell-based, Klebsiella pneumoniae
Protocol: as §1

[5] = system: K. pneumoniae H154600588 (KP8); type: cell-based, Klebsiella pneumoniae
Protocol: as §1

[6] = system: K. pneumoniae H151440671 (KP10); type: cell-based, Klebsiella pneumoniae
Protocol: as §1

[7] = system: K. pneumoniae ATCC 700603 (KP3); type: cell-based, Klebsiella pneumoniae
Protocol: as §1

[8] = system: K. pneumoniae H154020667 (KP6); type: cell-based, Klebsiella pneumoniae
Protocol: as §1

[9] = system: Klebsiella pneumoniae ATCC 10031 (KP2); type: cell-based
Protocol: as §1, with “Strains are grown in cation-adjusted Müller-Hinton broth or on Luria Bertoni agar at 37° C. in an ambient atmosphere.” left out

## NC[C@H]1O[C@H](O[C@H]2[C@H](O)[C@@H](O[C@H]3O[C@H](CO)[C@@H](O)[C@H](N)[C@H]3O)[C@H](N)C[C@@H]2N)[C@H](N)C[C@@H]1O [TOB]
[1]
  MIC KP7: B (a MIC of from 1 to 10 is assigned the letter B)
[2]
  MIC KP1: C (a MIC of from 10 to 100 is assigned the letter C)
[3]
  MIC KP5: D (a MIC of over 100 is assigned the letter D)
[4]
  MIC KP9: D (a MIC of over 100 is assigned the letter D)
[5]
  MIC KP8: D (a MIC of over 100 is assigned the letter D)
[6]
  MIC KP10: B (a MIC of from 1 to 10 is assigned the letter B)
[7]
  MIC KP3: D (a MIC of over 100 is assigned the letter D)
[8]
  MIC KP6: D (a MIC of over 100 is assigned the letter D)
[9]
  MIC KP2: B (a MIC of from 1 to 10 is assigned the letter B)
